Measurements taken from patent US5204349A, “Amide-substituted derivatives of spiroindanylcamphorsulfonyl oxytocin antagonists” (priority 1991, dated 1993).

Target: T1, uterine OT receptors (Rattus norvegicus, UniProt P70536)
T1 construct: from tissue; host or cells: rat uterus, crude membranes, DES-treated animals
T1 sequence (P70536 1-388): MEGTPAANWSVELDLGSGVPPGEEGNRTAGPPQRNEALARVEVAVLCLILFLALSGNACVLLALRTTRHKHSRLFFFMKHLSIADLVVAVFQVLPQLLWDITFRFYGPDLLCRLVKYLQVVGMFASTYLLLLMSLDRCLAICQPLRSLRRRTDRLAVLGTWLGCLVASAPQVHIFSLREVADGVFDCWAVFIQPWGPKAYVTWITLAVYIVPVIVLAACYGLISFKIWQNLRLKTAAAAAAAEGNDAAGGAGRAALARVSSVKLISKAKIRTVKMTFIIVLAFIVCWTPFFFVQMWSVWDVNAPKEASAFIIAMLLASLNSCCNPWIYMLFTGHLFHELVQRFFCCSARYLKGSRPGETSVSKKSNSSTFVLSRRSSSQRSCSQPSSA
Experiment: saturation binding of [^3 H]OT to uterine OT receptors (crude membrane preparation of uteri of DES-treated rats)
Conditions: saturation binding assay, uterus

## [tyrosyl, 3,5-[^3 H]OT [[^3]OT]
  Kd: 0.7 nM
